Tests used:
[1] = system: LH receptor (rat Leydig cells as a receptor source); assay: LH-BI radioligand-receptor assay: inhibition of 125I-hLH binding to rat Leydig cells; details: hormone reference preparation
[2] = biological target: FSH receptor (calf testis membranes); assay: FSH radioligand-receptor assay: inhibition of 125I-hFSH binding to calf testis membranes; details: worked out from the bFSH BI50 and its 50 times lower activity

BI50, analogous value for highly purified hFSH [2] [ng/ml]	Substance	BI50 dose [1] [ng/mL]
–	hLH (LER 1972): highly purified human LH reference preparation, also used to prepare the 125I-hLH	5.3 ± 0.4
6.9	h FSH (17812): highly purified hFSH used to prepare the 125I-hFSH	–

Reference: US4652450A, “Bacterial FSH binding inhibitor” (Research Corporation, priority 1984, dated 1987)
